# Yeast mating assay B: variants of the scFv Ab-14

Target: peptide PDVDLGDISGINAS, taken from heptad repeat 2 (HR2) of SARS-CoV-2 spike.

The variants keep the light chain, the linker and the frameworks of Ab-14 (scFv order VH, three GGGGS repeats, VL).
VH: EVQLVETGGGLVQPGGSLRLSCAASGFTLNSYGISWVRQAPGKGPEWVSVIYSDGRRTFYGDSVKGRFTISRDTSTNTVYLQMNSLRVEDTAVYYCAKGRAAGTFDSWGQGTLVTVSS
VL: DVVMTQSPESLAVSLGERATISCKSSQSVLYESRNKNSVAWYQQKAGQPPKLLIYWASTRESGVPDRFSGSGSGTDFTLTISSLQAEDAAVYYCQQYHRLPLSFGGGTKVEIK

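The parent was found by panning a naive human phage display library on the peptide. This is the validation round: designs drawn from the data on random variants, tested in the same kind of assay. Several design methods are mixed in this list. The assay is AlphaSeq: two haploid yeast populations carry antibody and antigen on their surface. The frequency of each diploid, read from paired DNA barcodes, reflects how well the two displayed proteins bind. Read counts were normalised to the haploid input and turned into Kd by a linear fit to BCL2-family pairs of known affinity, for each replicate. Each pool was mated in six replicate cultures.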

Changes read parent residue, position, new residue, counted from the first residue of the VH shown. Variants here have at most six changes. Each Kd is an estimate from the mating assay, the geometric mean of the replicates in which the pair was seen; lower is stronger. "no signal" marks a missing value. The strain was present, yet no cells mated with the target were sequenced in any replicate, which points to weak or no binding. The authors' rule: three or more of the six replicates give a measured affinity, fewer mean a poor binder.

Variant G61I+R100Q+S107T showed 12 nM (5 of 6 replicates; controls 0 of 18).
Variant N30D+S53A+A101E showed 7.7 nM (6 of 6 replicates; controls 0 of 18).
Variant T28V+S31Q+S53A showed 5.0 nM (6 of 6 replicates; controls 0 of 18).
Variant I34G+T104N showed no signal (0 of 6 replicates; controls 0 of 18).
Variant T28K+G61I+R100N+S107L showed 9.1 nM (6 of 6 replicates; controls 0 of 18).
Variant N30D+A101L showed 13 nM (6 of 6 replicates; controls 1 of 18).
Variant T28D+G61I+S63A+R100Q showed 18 nM (6 of 6 replicates; controls 0 of 18).
Variant T28Q+G61S+S63Q+R100E showed 8.2 nM (4 of 6 replicates; controls 0 of 18).
Variant N30E+S53A+S63H+D106N showed 200 nM (2 of 6 replicates; controls 0 of 18).
Variant T28Y+G61D+R100Q+A101T showed no signal (0 of 6 replicates; controls 0 of 18).
Variant T28E+G61A+R100Q+S107A showed 1.3 nM (6 of 6 replicates; controls 0 of 18).
Variant T28S+S31E+G61E+A101T showed 3.7 nM (6 of 6 replicates; controls 1 of 18).
Variant G26M+T28E+S53A+R100E showed 29 nM (6 of 6 replicates; controls 0 of 18).
Variant G99F+T104G showed 800 nM (1 of 6 replicates; controls 1 of 18).
Variant N30L+S63Q+G103S showed no signal (0 of 6 replicates; controls 0 of 18).
Variant G61L+R100Q showed 13 nM (5 of 6 replicates; controls 0 of 18).
Variant T28E+S31E+A101V+S107T showed 990 pM (6 of 6 replicates; controls 1 of 18).
Variant T28N+D62N+A101V+T104S+S107M showed 240 nM (3 of 6 replicates; controls 0 of 18).
Variant T28E+S31N+S63A+A101T showed 5.0 nM (6 of 6 replicates; controls 0 of 18).
Variant T28E+R100I+A101T+S107L showed 3.2 nM (6 of 6 replicates; controls 1 of 18).
Variant S31E+A102P+G103V+S107Q showed no signal (0 of 6 replicates; controls 0 of 18).
Variant S31E+G61T+A101E+S107M showed 570 pM (6 of 6 replicates; controls 0 of 18).
Variant T28S+F59A+G61Q+S63D showed 2.0 nM (6 of 6 replicates; controls 0 of 18).
Variant G26H+T28E+G61A+A101T showed 3.0 nM (6 of 6 replicates; controls 1 of 18).
Variant T28D+G61D+R100Q+A101G showed no signal (0 of 6 replicates; controls 0 of 18).
Variant T28S+S31D+G61H+S63E+A101T showed 20 nM (4 of 6 replicates; controls 0 of 18).
Variant T28D+R56H+R100K+A101T showed 1.3 nM (6 of 6 replicates; controls 0 of 18).
Variant S53A+R100T+D106K+S107F showed 71 nM (2 of 6 replicates; controls 0 of 18).
Variant S31E+R100G+S107L showed 7.2 nM (6 of 6 replicates; controls 0 of 18).
Variant S31E+R100K+S107V showed 380 pM (6 of 6 replicates; controls 0 of 18).

The first 2 entries again:

changes	Kd	seen in	empty controls
G61I+R100Q+S107T	12 nM	5/6	0/18
N30D+S53A+A101E	7.7 nM	6/6	0/18

The parent sequence was in this pool as ten entries: three were never detected, three once, and four in most replicates, with averages from 2.2 nM to 240 nM. The range of this assay differs from that of the first round, and the authors advise against merging the two. Three control strains display no target. For all heavy chain designs, 1% of the pairings with them gave a signal, with a median of 120 nM and one signal in twenty below 7.0 nM, so weak values seen in few replicates may be background. Also given: how often the same scFv was detected with the empty control strains.

Reference: Li et al. 2023, doi:10.1038/s41467-023-39022-2. File: FLAb, binding data.